Patent publication US7632829B2, “Diazepan derivatives” (Hoffmann-La Roche Inc., priority 2006, dated 2009)

Amino acid sequences for entries named in this document (tags omitted). Residues count along the entry.
UniProt P41597, 1-360 isoform 2: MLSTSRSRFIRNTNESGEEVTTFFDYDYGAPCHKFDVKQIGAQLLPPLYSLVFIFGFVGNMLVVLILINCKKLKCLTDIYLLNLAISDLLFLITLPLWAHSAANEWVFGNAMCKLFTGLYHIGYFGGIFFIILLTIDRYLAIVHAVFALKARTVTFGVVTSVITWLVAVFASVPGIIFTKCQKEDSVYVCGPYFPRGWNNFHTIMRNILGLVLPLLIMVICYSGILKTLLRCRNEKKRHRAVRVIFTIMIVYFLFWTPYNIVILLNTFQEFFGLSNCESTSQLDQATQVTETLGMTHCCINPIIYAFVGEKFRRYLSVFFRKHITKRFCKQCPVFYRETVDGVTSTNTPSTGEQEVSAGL

Target: human chemokine receptor 2 isoform B (Homo sapiens, UniProt P41597)
Test: Calcium mobilization assay (FLIPR, CHOK1-CCR2B-A5 cells, 20 nM MCP-1)
Settings: Ca mobilisation assay, CCR2, antagonist activity vs 20 nM MCP-1
Procedure: CHOK1-CCR2B-A5 cells (from Euroscreen) stably overexpressing the human chemokine receptor 2 isoform B were cultured in Nutrient Hams F12 medium supplemented with 5% FBS, 100 U/ml penicillin, 100 μg/ml streptomycin, 400 μg/ml G418 and 5 μg/ml puromycin.
For the assay cells were grown overnight in 384-well black clear flat bottom polystyrene plates (Costar) at 37° C. at 5% CO2. After washing with DMEM, 20 mM Hepes, 2.5 mM probenecid, 0.1% BSA (DMEM assay buffer) cells were loaded with 4 μM Fluo-4 in the same DMEM assay buffer for 2 hours at 30° C. Excess dye was removed and cells were washed with DMEM assay buffer. 384-well compound plates were prepared with DMEM assay buffer/0.5% DMSO with or without various concentrations of test compounds. Usually compounds were tested for agonist and antagonist activity.
Test compounds were added to the assay plate and agonist activity was monitored as fluorescence for 80 seconds with a FLIPR (488 nm excitation; 510-570 nm emission; Molecular Devices). After 20-30 min. of incubation at 30° C., 20 nM MCP-1 (R&D; Roche) was added and fluorescence was monitored again for 80 seconds. Increases in intracellular calcium are reported as maximum fluorescence after agonist exposure minus basal fluorescence before exposure. Antagonist activity is indicated as inhibitor concentration required for 50% inhibition of specific calcium increases.

In the case of CC1CCN(CCCCN2CCN(C(=O)/C=C/c3ccc(F)c(Cl)c3)CCC2=O)CC1O (stereo not shown), the IC50 is reported as 382 nM.
